Measurements reported in publication PMC6981440, “On-Membrane Dynamic Interplay between Anti-GM1 IgG Antibodies and Complement Component C1q” (International Journal of Molecular Sciences, 2019).

Protein sequences, listed by entry. Tags and fused reporters are not part of them. Residues count along the entry.
UniProt P02745, 23-245: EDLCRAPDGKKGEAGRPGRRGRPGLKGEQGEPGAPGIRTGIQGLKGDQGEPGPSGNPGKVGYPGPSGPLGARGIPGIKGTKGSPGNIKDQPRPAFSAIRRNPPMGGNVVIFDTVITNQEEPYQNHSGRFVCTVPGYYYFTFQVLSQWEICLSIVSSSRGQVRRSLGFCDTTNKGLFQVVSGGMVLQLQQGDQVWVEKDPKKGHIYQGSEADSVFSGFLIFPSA
complement component C1q, UniProt P02746, 28-253: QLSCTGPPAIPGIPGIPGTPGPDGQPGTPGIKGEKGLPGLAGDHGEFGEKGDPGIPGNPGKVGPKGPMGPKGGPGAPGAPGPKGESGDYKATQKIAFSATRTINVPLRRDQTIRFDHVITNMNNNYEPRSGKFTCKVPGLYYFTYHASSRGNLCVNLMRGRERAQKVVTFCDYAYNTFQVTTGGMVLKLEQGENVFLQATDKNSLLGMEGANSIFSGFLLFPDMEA
complement component C1q, UniProt P02747, 29-245: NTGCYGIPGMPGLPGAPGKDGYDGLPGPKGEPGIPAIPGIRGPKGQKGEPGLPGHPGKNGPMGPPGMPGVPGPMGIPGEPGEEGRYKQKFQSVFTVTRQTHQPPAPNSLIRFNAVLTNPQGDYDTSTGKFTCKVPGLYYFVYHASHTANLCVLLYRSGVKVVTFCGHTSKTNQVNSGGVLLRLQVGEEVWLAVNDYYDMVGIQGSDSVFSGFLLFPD

Molecular target: mouse anti-GM1 IgG2b(κ) antibody GB2 (mouse)
Test: high-speed atomic force microscopy; C1q added at 5-10 μg/mL to GB2 hexameric rings formed on a DOPC membrane with 50% GM1; bound-state dwell time from successive images; room temperature

Substance “complement component C1q (from UniProt P02745 23-245; P02746 28-253; P02747 29-245) (complex)” has a residence time of 0.49 s.
